Literature values in paper PMC7503831 (Molecules, 2020).
Marks after values point to notes of the source that are not given here.

Chains of the proteins cited; added tags and fusions are not shown.
UniProt P41143, whole entry: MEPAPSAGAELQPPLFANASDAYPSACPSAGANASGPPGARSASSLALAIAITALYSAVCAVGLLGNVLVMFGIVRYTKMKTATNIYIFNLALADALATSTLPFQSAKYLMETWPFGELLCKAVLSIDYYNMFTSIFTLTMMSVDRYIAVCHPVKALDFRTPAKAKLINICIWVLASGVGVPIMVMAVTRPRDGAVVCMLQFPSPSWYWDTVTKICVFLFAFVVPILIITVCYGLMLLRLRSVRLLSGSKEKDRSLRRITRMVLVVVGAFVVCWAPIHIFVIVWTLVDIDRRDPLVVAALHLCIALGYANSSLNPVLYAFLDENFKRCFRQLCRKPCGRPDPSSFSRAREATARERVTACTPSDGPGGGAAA

Biological target: T1, human DOR (Homo sapiens, UniProt P41143)
T1 construct: expressed in transfected cells; host or cells: CHO cells (membrane preparation)
Conditions: standards: DPDPE (1 μM) DOR agonist, ICI-174,864 (10 μM) DOR inverse agonist; cited from earlier work

In the case of DPDPE, the “Functional Activity for DOR, Emax (standard)” value is given as 100 ^e %.
